Patent US11607390B2, “Self-righting systems and related components and methods” (priority 2017, dated 2023)

Test system: glucose-6-phosphate
Conditions: micropost tips 40% G6PD, 60% PEO 200k vs uncompressed
Description: To perform the activity assay on G6PD, an activity assay kit (Sigma Aldrich) was used which measures the amount of oxidized glucose-6-phosphate.

Substance: glucose-6-phosphate dehydrogenase
- enzymatic activity after the manufacturing process: maintain their activity
